Assay results from patent US6664286B1, “Serotonergic 5ht2 agonists for treating glaucoma” (Alcon Manufacturing, Ltd., priority 1998, dated 2003).

Protein sequences, listed by entry. Tags and fused reporters are not part of them.
UniProt P14842, whole entry: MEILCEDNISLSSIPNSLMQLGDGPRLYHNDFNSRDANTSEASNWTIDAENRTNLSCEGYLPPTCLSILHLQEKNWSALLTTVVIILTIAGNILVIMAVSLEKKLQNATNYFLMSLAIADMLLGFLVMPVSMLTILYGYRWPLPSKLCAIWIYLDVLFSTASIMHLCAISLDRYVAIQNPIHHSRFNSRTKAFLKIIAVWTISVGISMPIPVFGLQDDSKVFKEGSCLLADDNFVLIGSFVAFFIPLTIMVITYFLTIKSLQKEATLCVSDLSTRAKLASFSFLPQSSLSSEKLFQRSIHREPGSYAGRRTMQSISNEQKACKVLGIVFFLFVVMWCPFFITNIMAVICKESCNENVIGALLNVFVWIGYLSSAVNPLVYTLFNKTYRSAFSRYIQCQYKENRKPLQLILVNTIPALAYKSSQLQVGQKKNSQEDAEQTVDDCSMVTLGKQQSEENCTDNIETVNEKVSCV

Target: 5HT2 receptor (Rattus norvegicus, UniProt P14842)
Assay: cell-based
Conditions: A7R5, read-out: Efficacy (Emax, %)
Experimental: Confluent cells are exposed for 24-30 hrs to 1.5 μCi [^3H]-myo-inositol (18.3 Ci/mmol) in 0.5 ml of serum-free medium. Cells are then rinsed once with DMEM/F-12 containing 10 mM LiCl prior to incubation with the test agent (or solvent as the control) in 1.0 ml of the same medium for 1 hr at 37° C., after which the medium is aspirated and 1 ml of cold 0.1 M formic acid added to stop the reaction. […] The eluate (4 ml) is collected, mixed with 15 ml scintillation fluid, and the total [^3H]-IPs determined by scintillation counting on a beta-counter.

COc1cc(C[C@@H](C)N)c(OC)cc1I [(R)-DOI, (R)4-iodo-2,5 dimethoxy-α-methyl-benzeneethanamine]
Emax: 82%
